Measured values reported in patent US20060051358A1, “Immune response assessment method” (Baylor Research Institute, priority 2004, published 2006).

Tests used:
[1] = tested on: PBMCs obtained from melanoma patients; assay: EPIMAX: PBMC culture with peptides or peptide clusters, multiplex bead cytokine assay (Luminex); type: cell-based, human; conditions: Patient 2, thawed PBMC after DC vaccine, 10 μg/ml peptide, 48 hours
[2] = tested on: CD8+ T cells in melanoma patient PBMCs; assay: Expansion of antigen-specific CD8+ T cells with peptide-loaded DCs, tetramer staining; type: cell-based, human; conditions: PBMC cultured with autologous monocyte-derived DCs loaded with peptide
Description: To check if this patient's PBMCs contain CD8+ T cells recognizing this dominant epitope, PBMCs were cultured with autologous monocyte-derived DCs loaded with MART-127-35 or other HLA-0201 peptides (e.g., Mage-3, Tyrosinase, and Flu-MP), and examined for the induction of antigen-specific CD8+ T cell population with specific tetramers.

Sequence: AAGIGILTV [MART-127-35, reference compound]
- IL-1α production [1]: slight increase
- IP-10 production [1]: marked increase
- expansion of MART-1 specific CD8+ T cells (tetramer) [2]: easily expanded within 7 days
